Assay results published in PMC7996082, “The translocator protein ligands as mitochondrial functional modulators for the potential anti-Alzheimer agents” (Journal of Enzyme Inhibition and Medicinal Chemistry, 2021).

Protein sequences, listed by entry. Tags and fused reporters are not part of them. Residues count along the entry.
UniProt P05177, 2-516 limits assumed: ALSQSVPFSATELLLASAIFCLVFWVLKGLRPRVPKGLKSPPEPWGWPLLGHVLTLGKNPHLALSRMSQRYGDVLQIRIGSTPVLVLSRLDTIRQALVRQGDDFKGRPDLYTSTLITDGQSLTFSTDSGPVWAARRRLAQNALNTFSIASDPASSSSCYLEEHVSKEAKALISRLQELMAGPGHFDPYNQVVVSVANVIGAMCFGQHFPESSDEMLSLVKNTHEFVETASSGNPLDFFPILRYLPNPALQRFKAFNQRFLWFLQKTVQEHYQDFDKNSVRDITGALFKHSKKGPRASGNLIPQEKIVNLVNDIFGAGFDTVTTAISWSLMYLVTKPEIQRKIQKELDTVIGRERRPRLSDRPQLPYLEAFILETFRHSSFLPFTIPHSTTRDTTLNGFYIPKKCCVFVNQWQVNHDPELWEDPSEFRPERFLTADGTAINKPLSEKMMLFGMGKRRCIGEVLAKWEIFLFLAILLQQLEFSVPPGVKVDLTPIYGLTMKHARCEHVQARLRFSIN
UniProt P11712, whole entry: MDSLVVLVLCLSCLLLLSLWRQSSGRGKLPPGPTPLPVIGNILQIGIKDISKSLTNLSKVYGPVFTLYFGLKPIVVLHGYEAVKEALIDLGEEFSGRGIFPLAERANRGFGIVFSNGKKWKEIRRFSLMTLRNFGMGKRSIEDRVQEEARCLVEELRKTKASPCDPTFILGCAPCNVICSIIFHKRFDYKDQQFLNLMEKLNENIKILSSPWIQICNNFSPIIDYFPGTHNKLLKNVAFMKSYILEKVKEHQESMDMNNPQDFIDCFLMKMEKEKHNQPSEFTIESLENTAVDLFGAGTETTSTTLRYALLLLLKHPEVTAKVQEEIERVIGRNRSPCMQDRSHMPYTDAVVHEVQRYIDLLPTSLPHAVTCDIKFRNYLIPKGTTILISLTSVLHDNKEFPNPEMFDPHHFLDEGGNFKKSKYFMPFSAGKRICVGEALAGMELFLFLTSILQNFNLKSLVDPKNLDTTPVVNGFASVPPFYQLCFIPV
UniProt P10635, whole entry: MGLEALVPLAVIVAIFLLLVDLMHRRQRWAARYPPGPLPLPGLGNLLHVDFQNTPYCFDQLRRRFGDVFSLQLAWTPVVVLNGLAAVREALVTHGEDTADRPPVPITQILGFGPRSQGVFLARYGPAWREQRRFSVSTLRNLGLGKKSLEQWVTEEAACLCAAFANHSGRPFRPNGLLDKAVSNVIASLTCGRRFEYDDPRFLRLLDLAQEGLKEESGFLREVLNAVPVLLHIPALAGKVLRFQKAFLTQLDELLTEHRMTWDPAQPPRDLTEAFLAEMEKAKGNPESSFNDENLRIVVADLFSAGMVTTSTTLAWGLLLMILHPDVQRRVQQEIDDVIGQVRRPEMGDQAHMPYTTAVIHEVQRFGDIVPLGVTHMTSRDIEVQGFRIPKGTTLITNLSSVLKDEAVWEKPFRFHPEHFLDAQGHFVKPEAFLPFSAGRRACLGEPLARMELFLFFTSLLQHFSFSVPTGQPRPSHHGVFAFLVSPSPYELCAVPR
UniProt P08684, 2-503 limits assumed: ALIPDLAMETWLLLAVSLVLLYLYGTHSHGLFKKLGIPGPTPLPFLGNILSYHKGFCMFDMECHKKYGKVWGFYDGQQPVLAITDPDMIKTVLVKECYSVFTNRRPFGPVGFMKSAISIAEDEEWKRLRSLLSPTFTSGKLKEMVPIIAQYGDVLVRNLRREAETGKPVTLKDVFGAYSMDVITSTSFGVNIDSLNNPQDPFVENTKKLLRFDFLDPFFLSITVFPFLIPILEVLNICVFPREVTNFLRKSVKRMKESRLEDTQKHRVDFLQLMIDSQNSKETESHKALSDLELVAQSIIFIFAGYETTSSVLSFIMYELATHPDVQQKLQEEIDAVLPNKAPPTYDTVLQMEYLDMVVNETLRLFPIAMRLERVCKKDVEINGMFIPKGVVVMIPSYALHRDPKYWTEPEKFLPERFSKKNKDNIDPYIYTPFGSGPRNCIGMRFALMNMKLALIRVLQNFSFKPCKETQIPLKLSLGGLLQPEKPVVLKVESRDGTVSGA
UniProt Q12809, whole entry: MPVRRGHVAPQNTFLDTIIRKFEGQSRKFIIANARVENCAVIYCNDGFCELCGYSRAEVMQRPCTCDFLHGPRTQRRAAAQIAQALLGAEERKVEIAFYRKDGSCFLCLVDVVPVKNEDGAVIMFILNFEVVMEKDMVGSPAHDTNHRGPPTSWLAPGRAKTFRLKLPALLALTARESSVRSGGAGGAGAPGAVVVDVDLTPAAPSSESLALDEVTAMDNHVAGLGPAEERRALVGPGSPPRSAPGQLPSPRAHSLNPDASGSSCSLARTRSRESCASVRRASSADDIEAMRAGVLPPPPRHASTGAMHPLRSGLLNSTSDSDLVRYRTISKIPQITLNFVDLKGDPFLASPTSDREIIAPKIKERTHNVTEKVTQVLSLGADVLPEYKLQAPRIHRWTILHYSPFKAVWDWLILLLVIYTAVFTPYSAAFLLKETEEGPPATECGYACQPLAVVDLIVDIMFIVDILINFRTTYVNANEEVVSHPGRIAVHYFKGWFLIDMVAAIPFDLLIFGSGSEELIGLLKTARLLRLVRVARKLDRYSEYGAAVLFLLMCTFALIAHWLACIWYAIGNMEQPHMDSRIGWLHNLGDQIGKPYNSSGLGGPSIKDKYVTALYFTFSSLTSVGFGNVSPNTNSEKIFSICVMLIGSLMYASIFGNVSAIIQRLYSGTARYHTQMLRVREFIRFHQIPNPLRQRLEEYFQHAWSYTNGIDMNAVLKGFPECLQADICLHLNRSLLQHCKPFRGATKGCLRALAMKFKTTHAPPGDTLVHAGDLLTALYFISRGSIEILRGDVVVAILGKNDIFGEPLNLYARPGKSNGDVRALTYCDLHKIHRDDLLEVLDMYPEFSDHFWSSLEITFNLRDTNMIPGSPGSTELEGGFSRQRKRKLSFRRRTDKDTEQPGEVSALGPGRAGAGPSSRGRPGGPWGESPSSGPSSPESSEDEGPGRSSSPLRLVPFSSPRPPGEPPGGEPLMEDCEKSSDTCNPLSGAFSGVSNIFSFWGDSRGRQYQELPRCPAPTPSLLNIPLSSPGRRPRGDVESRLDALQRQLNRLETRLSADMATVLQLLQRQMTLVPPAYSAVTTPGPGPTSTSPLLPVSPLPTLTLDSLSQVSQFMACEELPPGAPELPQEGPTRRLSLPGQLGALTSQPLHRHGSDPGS
UniProt P30536, whole entry: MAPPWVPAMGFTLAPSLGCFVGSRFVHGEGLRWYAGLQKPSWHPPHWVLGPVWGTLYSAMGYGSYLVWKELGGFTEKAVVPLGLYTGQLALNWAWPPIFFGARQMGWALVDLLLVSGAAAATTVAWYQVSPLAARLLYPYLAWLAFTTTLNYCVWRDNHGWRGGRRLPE

Assays:
HT22 cells = test: MTT assay: HT22 cell viability with compound alone; format: cell-based, mouse; settings: HT22 cell viability after 24 h of treatment with 5 μM compound, no Aβ
[1] = system: HT22 cells treated with Aβ; test: Cellular ROS assay (DCFDA): inhibition of Aβ-induced ROS generation; settings: 5 μM compound
CYP1A2 = CYP1A2 (Homo sapiens, UniProt P05177); test: CYP inhibition assay (Vivid CYP450 screening kit); settings: 10 μM compound
CYP2C9 = CYP2C9 (Homo sapiens, UniProt P11712); test: CYP inhibition assay (Vivid CYP450 screening kit); settings: 10 μM compound
CYP2D6 = CYP2D6 (Homo sapiens, UniProt P10635); test: CYP inhibition assay (Vivid CYP450 screening kit); settings: 10 μM compound
CYP3A4 = CYP3A4 (Homo sapiens, UniProt P08684); test: CYP inhibition assay (Vivid CYP450 screening kit); settings: 10 μM compound
hERG channel = hERG channel (Homo sapiens, UniProt Q12809); test: hERG inhibition assay (automated patch-clamp, CHO-K1 Tet-On hERG cells); settings: read-out: hERG (IC50), ± SD
[2] = Liver microsomal stability; settings: 1 µM compound, 0.5 mg/mL microsomes, 37 °C
[3] = system: acute AD model mice (Aβ1-42 ICV injected ICR mice); test: Y-maze spontaneous alternation test in acute AD model mice; settings: 30 mg/kg daily, 6 days
[4] = Pharmacokinetic study in SD male rats; settings: 10 mg/kg, n = 5, Table S3
recombinant human TSPO = recombinant human TSPO (Homo sapiens, UniProt P30536); test: Surface plasmon resonance (SPR) binding affinity; settings: mean ± SD of three measurements

SMILES: COc1ccc(-n2c(SCC(=O)Nc3ccc(F)cc3F)nc3sc4c(c3c2=O)CCN(C(C)=O)C4)cc1
- MTT Viability (%) (HT22 cells): 120%
- ROS Inhibition (%) [1]: 136%
- CYP450 (% remaining Activity at 10 μM) CYP1A2 (CYP1A2): 92.0%
- CYP450 (% remaining Activity at 10 μM) CYP2C9 (CYP2C9): 63.8%
- CYP450 (% remaining Activity at 10 μM) CYP2D6 (CYP2D6): 98.9%
- CYP450 (% remaining Activity at 10 μM) CYP3A4 (CYP3A4): 158.6%
- IC50 (hERG channel): 4.23 µM
- Human Liver Microsomal Stability (% remaining after 30 min) [2]: 62.9%
- Y-maze activity in acute AD model (in words) [3]: did not show any comparable activity
- AUC0–∞ ([4]; intravenous): 330.66 ± 93.61 mg·min/mL
- AUClast ([4]; intravenous): 273.60 ± 64.45 mg·min/mL
- CL ([4]; intravenous): 32.525±10.08 ml/mim/kg
- Terminal half-life ([4]; intravenous): 2.8972 ± 0.5397 h
- Vss ([4]; intravenous): 7.73686 L/kg
- F (bioavailability) ([4]; oral vs intravenous): 8.0%
- AUC0–∞ ([4]; oral): 26.59 ± 22.32 mg·min/mL
- AUClast ([4]; oral): 11.67 ± 5.99 mg·min/mL
- Terminal half-life ([4]; oral): 7.4683 ± 0.46 h
- Tmax ([4]; oral): 0.8 h
- Kd (recombinant human TSPO): 1.69 µM
